Earlier results on one substance are cited in article PMC12113730, “Reducing Functional Domain of Histatin 5 Improves Antifungal Activity and Prevents Proteolytic Degradation” (Microorganisms, 2025).

For the data set the following is noted: cited from earlier work.

Regarding Histatin 5 [Hst5], for the setting “in contact with diluted WSS”, the “Time reported for complete degradation” value is given as 60 min. Further, the “Time enough for complete degradation” value (ref 45 (Thomadaki et al.)) is 1.5 h.
